High-throughput results from PubChem.
Most compounds without a hit are left out; they make up all but 16% or so of the library.
TDP1 cell noCPT: qHTS for Inhibitors of human tyrosyl-DNA phosphodiesterase 1 (TDP1): qHTS in cells in absence of CPT; DT40 Tdp1-/- hTDP1 cells, no CPT, ATP luminescence, 48 h; Potency, µM (highest dose often 46.2 µM), actives largely listed as inhibitors; 420,000 tested, 15% active; AID 686978, 2013; further: nearly all actives have a fitted effect of over 55% in size
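Chicken DT40 Tdp1-/- cells complemented with human TDP1, screened without camptothecin (DMSO vehicle only), 400 cells/well. Compounds pin-transferred, cells incubated at 37 °C for at least 48 hr. Growth read as ATP-dependent luminescence (CellTiter-Glo, 30 min at RT).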
DT40 TDP1 CPT: growth inhibition of DT40 Tdp1-/-;hTDP1 cells with camptothecin (screen for TDP1 inhibitors); chicken DT40 Tdp1-/-;hTDP1 cells + 20 nM CPT, ATP luminescence, 48 h; Potency, µM (titrated, usually from 46.2 µM), usual class: inhibitors; 420,000 tested, 12% active; AID 686979; further: nearly all actives have a fitted effect of over 55% in size
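Chicken DT40 Tdp1-/- cells stably complemented with human TDP1 were seeded at 400 cells/well in medium containing 20 nM camptothecin, exposed to pin-transferred compounds, and grown at 37 °C for at least 48 hr. Viability was read as ATP luminescence.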
miR-21 FLuc: raises the signal of a miR-21 reporter; HeLa miR-21 FLuc reporter, luciferase, 48 h; Potency, µM (highest dose often 38.3 µM); 340,000 tested, under 10 active; active = well fitted rising curve with a large enough effect; inconclusive = small, poorly fitted or top-dose-only effect; inactive = no such curve, though single readings can be large or run the other way;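 note: miR-21 action dims this reporter so a rising signal means less miR-21 action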
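Compounds were titrated across several concentrations (up to approximately 40 uM) and incubated 48 hours with HeLa miR-21-FLuc reporter cells (miR-21 target sequence downstream of FLuc, endogenous miR-21). Readout was firefly luciferase luminescence after lytic detection reagent.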
TDP1 inh: inhibitors of human tyrosyl-DNA phosphodiesterase TDP1; Q9NUW8; recombinant TDP1, AlphaScreen DNA substrate cleavage; Potency, µM (highest dose often 130 µM), most hits filed as inhibitors; 350,000 tested, 0.28% active; AID 485290; further: nearly all actives have a fitted effect of over 40% in size
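Compounds were preincubated with Tdp1 (1 nM final) for 15 min at room temperature before substrate (15 nM final) started a 5 min reaction; beads (10 ug/ml final) were then added for 10 min before AlphaScreen detection.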
uPA generation: inhibitors of cell surface uPA generation; cell surface uPA generation assay, qHTS; Potency, µM (doses to about 38.3 µM), actives largely listed as inhibitors; 330,000 tested, 0.31% active; active means well fitted inhibition curve with a large enough effect; inconclusive means small, poorly fitted or top-dose-only effect; inactive means no such curve, though single readings can be large or run the other way; tested in mouse RAW 264.7 cells; further: nearly all actives have a fitted effect of over 55% in size
Each line names hits and unclear results; the compound was inactive in the other large screens. Unless noted, the call rests on the fitted dose curve; in most records, active means well fitted curve in the direction sought with a large enough effect; inconclusive means small, poorly fitted or top-dose-only effect, or another doubt; inactive means no such curve, though single readings can be large; an effect the other way counts as inactive or inconclusive.

O=C(NC(=S)Nc1cccc(Cl)c1)c1cncc(Br)c1	TDP1 cell noCPT inconclusive, DT40 TDP1 CPT inconclusive (no result: miR-21 FLuc, TDP1 inh)
O=C(NC(=S)Nc1ccc2c(c1)OCCO2)c1cccc(Br)c1	TDP1 cell noCPT inconclusive, DT40 TDP1 CPT 15µM
CC(=O)c1cccc(NC(=S)NC(=O)c2cncc(Br)c2)c1	TDP1 cell noCPT inconclusive, DT40 TDP1 CPT 13µM (no result: TDP1 inh)
NS(=O)(=O)c1cccc(NC(=O)/C=C/c2cccs2)c1	none
N#CC(Cc1ccccc1OC(F)F)c1nc2ccccc2[nH]1 (stereo not given)	none
COc1cc(NC(=O)CSc2nc(C)c(C(=O)Nc3ccccc3)c(-c3ccc(OC)c(OC)c3)c2C#N)c(OC)cc1Cl	none (no result: uPA generation)
Cc1nc(N)sc1-c1csc(Nc2ccccc2)n1	TDP1 cell noCPT inconclusive, DT40 TDP1 CPT inconclusive
Cc1nc(C)c(-c2csc(Nc3ccc(N)cc3)n2)s1	TDP1 cell noCPT 16µM, DT40 TDP1 CPT inconclusive, uPA generation 4.5µM (no result: TDP1 inh)
COc1ccc(-c2csc(Nc3ccc(Oc4ccccc4)cc3)n2)cc1	TDP1 cell noCPT 16µM, DT40 TDP1 CPT 18µM (no result: miR-21 FLuc, TDP1 inh, uPA generation)
COc1ccc(Nc2nc(-c3sc(C)nc3C)cs2)cc1	TDP1 cell noCPT 1.2µM, DT40 TDP1 CPT 1.2µM, uPA generation inconclusive (no result: TDP1 inh)
CCC(CO)NC(=O)c1ccccc1C(F)(F)F (stereo not given)	none
Cn1cc(C(=O)c2ccccc2)cc1-c1nc2ccccc2n1C	TDP1 cell noCPT 18µM, DT40 TDP1 CPT inconclusive
Cc1oc(-c2nc3ccccc3n2C)cc1C(=O)c1ccccc1	TDP1 cell noCPT 21µM, DT40 TDP1 CPT 16µM
CC(=O)c1ccc(-c2nc3ccccc3n2C)o1	TDP1 cell noCPT inconclusive, DT40 TDP1 CPT inconclusive
CCN(CC(=O)Nc1ccc(OC)cc1)C(=O)CN1C(=O)NC(C)(c2ccc3ccccc3c2)C1=O (stereo not given)	TDP1 cell noCPT inconclusive, DT40 TDP1 CPT inconclusive
Cc1ccc(S(=O)(=O)N2CCOCC2)cc1C(=O)N(Cc1nnc(-c2ccccc2Cl)o1)C1CC1	TDP1 cell noCPT inconclusive, DT40 TDP1 CPT inconclusive
O=C(c1cccc(S(=O)(=O)N2CCOCC2)c1)N(Cc1nnc(-c2ccccc2Cl)o1)C1CC1	TDP1 cell noCPT inconclusive, DT40 TDP1 CPT inconclusive (no result: miR-21 FLuc)
CCCN(Cc1nnc(-c2ccccc2Cl)o1)C(=O)c1cc([N+](=O)[O-])cc([N+](=O)[O-])c1	TDP1 cell noCPT 6.5µM, DT40 TDP1 CPT 6.5µM
O=C(c1ccc(Cl)c(S(=O)(=O)N2CCOCC2)c1)N(Cc1nnc(-c2ccccc2Cl)o1)C1CC1	TDP1 cell noCPT 15µM, DT40 TDP1 CPT 21µM (no result: miR-21 FLuc)
O=C1CCCN1c1ccc(C(=O)N(Cc2nnc(-c3ccccc3Cl)o2)C2CC2)cc1	TDP1 cell noCPT inconclusive, DT40 TDP1 CPT inconclusive (no result: miR-21 FLuc, TDP1 inh)
CN1CCN(S(=O)(=O)c2cccc(C(=O)N(Cc3nnc(-c4ccc(Cl)cc4)o3)C3CC3)c2)CC1	TDP1 cell noCPT inconclusive, DT40 TDP1 CPT 21µM (no result: miR-21 FLuc)
O=C(c1cc([N+](=O)[O-])cc([N+](=O)[O-])c1)N(Cc1nnc(-c2ccccc2Cl)o1)C1CC1	TDP1 cell noCPT 18µM, DT40 TDP1 CPT inconclusive
CN(C)C(=O)CCc1ccc2c3c([nH]c2c1)[C@]1(C)[C@@H](C(=O)N2CCOCC2)C[C@H](CC(=O)NCCCn2ccnc2)C(=O)N1CC3	none (no result: miR-21 FLuc)
Cc1ccc(S(=O)(=O)N(CC(=O)Nc2ccc3c(c2)OCO3)c2cc(Cl)cc(Cl)c2)cc1	TDP1 cell noCPT inconclusive, DT40 TDP1 CPT inconclusive (no result: uPA generation)
COC(=O)c1ccc(/C=N/n2c(C)nc3ccccc3c2=O)cc1	TDP1 cell noCPT inconclusive (no result: TDP1 inh)
COc1ccc(NC(=O)O[C@@H](C)[C@@H]2CN3CCc4c([nH]c5ccc(-c6ccc(OC)cc6)cc45)[C@@H]3C[C@@H]2N(C)C(=O)Nc2ccc(OC)cc2)cc1	TDP1 cell noCPT 13µM, DT40 TDP1 CPT inconclusive (no result: miR-21 FLuc, TDP1 inh, uPA generation)
COc1ccc(NC(=O)N(C)[C@H]2C[C@H]3c4[nH]c5ccc(-c6ccc7c(c6)OCO7)cc5c4CCN3C[C@H]2[C@H](C)O)cc1	TDP1 cell noCPT 10µM, DT40 TDP1 CPT 8.2µM (no result: miR-21 FLuc, TDP1 inh, uPA generation)
COc1ccc(C(=O)N(C)[C@H]2C[C@H]3c4[nH]c5ccccc5c4CCN3C[C@H]2[C@H](C)O)cc1	DT40 TDP1 CPT inconclusive (no result: miR-21 FLuc, TDP1 inh, uPA generation)
Cc1ccc(S(=O)(=O)NC(C)C(=O)N2CCOCCOCCOCC2)cc1 (stereo not given)	none
